The assay addresses SF9 affinity purified rat FPT (Rattus norvegicus, UniProt Q02293+Q04631). Description: PFT (FPT) inhibitory activity assay, radiolabeled farnesyl pyrophosphate and biotinyl peptide, streptavidin beads. The settings on record: read-out: FTase IC50 nM; HEPES buffer pH 7.4, 30° C., 30 minutes.

Protein sequences, listed by entry. Tags and fused reporters are not part of them.
UniProt Q02293, whole entry: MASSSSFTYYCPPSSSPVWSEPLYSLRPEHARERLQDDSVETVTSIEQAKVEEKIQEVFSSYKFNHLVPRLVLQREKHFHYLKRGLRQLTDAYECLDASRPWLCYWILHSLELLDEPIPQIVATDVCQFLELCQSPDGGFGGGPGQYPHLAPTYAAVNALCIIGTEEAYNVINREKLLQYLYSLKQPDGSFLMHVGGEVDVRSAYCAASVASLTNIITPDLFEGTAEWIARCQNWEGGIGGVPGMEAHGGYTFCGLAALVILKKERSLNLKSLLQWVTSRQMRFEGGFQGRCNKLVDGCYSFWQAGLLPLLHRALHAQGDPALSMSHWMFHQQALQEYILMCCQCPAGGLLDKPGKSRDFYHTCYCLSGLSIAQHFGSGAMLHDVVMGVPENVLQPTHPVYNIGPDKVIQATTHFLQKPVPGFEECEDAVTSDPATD

Our source for the IC50 values is patent US6943183B2 (Pfizer Inc, priority 2000, dated 2005).

As for `COC(=O)CCSCc1c(O[C@H](Cn2ccnc2)c2ccccc2)ccc2c1CCCC2=O`, the half-inhibitory concentration (IC50) (commonly the concentration at which inhibition is half-maximal) worked out at 4 nM.
For `CC(=O)Nc1ccc(SCc2c(O[C@H](Cn3ccnc3)c3ccccc3)ccc3c2CCCC3=O)cc1`, the half-maximal inhibitory concentration (IC50) came to 3 nM.
Regarding `CC(C)Oc1ccccc1OCc1c(O[C@H](Cn2ccnc2)c2ccccc2)ccc2c1CCCC2=O`, the IC50 was determined as 1 nM.
For the compound `O=C1CCCc2c1ccc(O[C@H](Cn1ccnc1)c1ccccc1)c2CSc1ccc2ccccc2c1`, the half-inhibitory concentration (IC50) worked out at 8 nM.
